# The entries are a selection whose mix differs from that of the whole data set. The source made the active and inactive calls.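 Rule for the calls: active = inhibition above about 70% (limit read from the data); inactive = the rest.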
# Chains of the proteins cited; added tags and fusions are not shown.
# UniProt P63103, whole entry: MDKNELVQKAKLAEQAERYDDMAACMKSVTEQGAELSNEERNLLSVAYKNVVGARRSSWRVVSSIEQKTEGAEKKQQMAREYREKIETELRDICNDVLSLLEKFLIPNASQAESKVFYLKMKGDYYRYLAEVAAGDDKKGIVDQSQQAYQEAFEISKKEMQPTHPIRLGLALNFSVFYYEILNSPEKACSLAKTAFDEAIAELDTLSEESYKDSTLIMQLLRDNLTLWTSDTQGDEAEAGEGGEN
# Target: 14-3-3 protein zeta/delta (Bos taurus) (UniProt P63103)
# Test: disruptors of 14-3-3 zeta phospho-Bad complex – biochemical, TR-FRET, bovine 14-3-3 zeta, primary screen (AID 781);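 note: 0% = full 14-3-3 plus peptide FRET controls and 100% = background without 14-3-3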
# Conditions: TR-FRET 14-3-3zeta/Dy647-pBad peptide displacement, 1 h; at 21.7 µM; active compounds read high
row,SMILES,inhibition
1,CCN(N=Nc1nonc1N)c1nonc1N,inactive: -13.8%
